Reference: US6645733B1, “Fluorescent intensity method for assaying binding between proteins or peptides” (Ingeneus Corporation, priority 1999, dated 2003)

Target: T1, human AT1 receptor (Homo sapiens, UniProt P30556)
T1 construct: purchased NEN Life Science Products Inc., Boston, Mass; host or cells: Chinese hamster ovary (CHO) cells, purified membrane preparation
Test: Competition binding experiment: displacement of wildtype Flu-AII from AT1 receptor by unlabeled ligand
Conditions: 10 nM Flu-AII, 0.02 units AT1 receptor

angiotensin II [AII]
decrease in fluorescent intensity compared to Flu-AII alone (1 nM unlabeled competitor): 65%
change in competitor concentration required to compete from 90% to 10% specific binding (FIG. 2B): > 100 fold
decrease in fluorescent intensity compared to Flu-AII alone (10 nM unlabeled competitor): 58%
decrease in fluorescent intensity compared to Flu-AII alone (300 nM unlabeled competitor): 43%
decrease in fluorescent intensity compared to Flu-AII alone (3 μM unlabeled competitor): 35%
decrease in fluorescent intensity compared to Flu-AII alone (100 μM unlabeled competitor): 14%
decrease in fluorescent intensity (full competition with Flu-AII for AT1 receptor binding) (300 μM unlabeled competitor (3×10^4-fold excess)): no decrease in fluorescent intensity
